Test system: Human primary skin fibroblasts (hFIB)
Test: Host cell toxicity (AlamarBlue)
Format: cell-based
Experimental: Human primary skin fibroblasts (hFIB) were obtained from patient skin biopsy and cultured in Dulbecco’s Modified Eagle Medium (DMEM) supplemented with 10% fetal bovine serum (FBS) and Penicillin-Streptomycin (0.2 U/mL) (all from Gibco/Life Technologies, Grand Island, NY, USA). The cells were seeded on 96-well plates at 3 × 10^4 cells/mL and treated with the drugs for 72 h of incubation time. Following the treatments, cells were washed with saline solution twice, and cell viability was determined by the AlamarBlue assay (Thermo Fisher Scientific, Carlsbad, CA, USA), according to the manufacturer’s instructions. Colorimetric readings were performed after 24 h at 570 and 600 nm. Fifty-percent cytotoxic concentration (CC50) values were calculated using data points gathered from three independent experiments.

SMILES	SI (selectivity index), ratio of CC50 (hFIB) to EC50 (amastigote)
CCCCCC/C=C\CCCCCCCc1cccc(O)c1C(=O)O [Compound 6, 2-Hydroxy-6-(8Z)-8-pentadecenylbenzoic acid]	>2
CCC/C=C\C/C=C\CCCCCCCc1cccc(O)c1C(=O)O [Compound 5, 2-Hydroxy-6-(8Z,11Z)-8,11-pentadecadien-1-ylbenzoic acid]	>2
